System: recombinant SnCDPK1
Test: Recombinant SnCDPK1 thermal shift assay
Format: binding, Sarcocystis neurona
Settings: 20 µM BKI, 5% DMSO; change in Tm vs DMSO control

SMILES: CCOc1ccc2cc(-c3nn(CC4CCN(C)CC4)c4ncnc(N)c34)ccc2c1 [compound 1294]
- Recombinant SnCDPK1 Thermal Shift (°C) at 20 µM: 9.9 °C

Reference: PMC5130624 (International journal for parasitology, 2016)
